Reference: paper PMC3454389, “Mining the Sinorhizobium meliloti Transportome to Develop FRET Biosensors for Sugars, Dicarboxylates and Cyclic Polyols” (PLoS ONE, 2012)
pKd: −log10 of the molar value.

Sequences of proteins named here, by UniProt entry; tags and fusion partners are left off.
UniProt Q92P64, entry or part of it: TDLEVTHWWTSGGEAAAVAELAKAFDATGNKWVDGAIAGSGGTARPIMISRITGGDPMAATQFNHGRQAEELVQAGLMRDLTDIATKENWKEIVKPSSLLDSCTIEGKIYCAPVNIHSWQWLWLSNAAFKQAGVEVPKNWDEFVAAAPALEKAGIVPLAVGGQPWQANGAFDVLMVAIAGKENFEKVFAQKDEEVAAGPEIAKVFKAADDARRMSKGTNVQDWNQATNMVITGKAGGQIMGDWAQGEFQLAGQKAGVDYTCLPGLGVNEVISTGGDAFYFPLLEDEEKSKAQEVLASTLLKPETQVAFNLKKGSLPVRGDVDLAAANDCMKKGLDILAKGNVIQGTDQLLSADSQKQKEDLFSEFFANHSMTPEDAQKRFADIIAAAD

Biological target: SMc04259-CY (Sinorhizobium meliloti, UniProt Q92P64)
Experiment: FRET biosensor SMc04259-CY, in vitro ligand titration
Format: binding
Details: pCYS (pLMB345), Tris-HCl pH 8.5
Experimental: Ligand-induced FRET ratio changes of purified FRET biosensor were screened using a LS55 luminescence spectrometer (PerkinElmer Instruments). Excitation (ex.) was at (λ/slit width) 433/10 nm (CFP) or 549/10 nm (OFP). Emission (em.) was measured at 475/10 nm (CFP), 527/10 nm (YFP), 573/10 nm (OFP) and 644/10 nm (RFP). To confirm that Aphrodite and mKate2 were properly folded their fluorescence was individually tested by direct excitation at 510/6 nm and 588/10 nm respectively.
Affinity constants (Kd) of FRET biosensors with specific ligands were established using a monochromator microplate reader (Safire, Tecan, Switzerland; CFP ex.: (λ\bandwidth) 433/12 nm, em.: 475/12 nm; YFP em.: 527/12 nm. OFP ex.: 533/12 nm, em.: 563/12 nm; RFP em.: 615/12 nm). Proteins were diluted to give relative fluorescence units (RFU) in the detection range of 30,000 to 50,000 RFU at a gain of 90 to 100, and then were added to a dilution series (10^−3 to 10^−11 M) of ligand in Tris-HCl (pH 8.5, 50 mM). The change in relative emission intensities at 527/477 nm (YFP/CFP) or 615/563 nm (RFP/OFP) was used to determine Kd by fitting the titration curves to a single-site-binding isotherm: [drawing 1] with: R, ratio; Rapo, ratio without ligand; Rsat, ratio at saturation of ligand; n, number of equal binding sites; [L], ligand concentration. […]

gentiobiose gave a pKd of 7.28.
